Test results reported in PubChem BioAssay (NCI).
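A five-concentration, 48-hour dose response in 96-well plates underlies each endpoint, interpolated linearly between surrounding concentrations. At the GI50, growth is halved. TGI denotes the concentration required for complete inhibition of growth.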

Columns and labels:
Test in all cases: NCI tumour cell line growth inhibition, 48 h
OVCAR-3 ovarian = test system: OVCAR-3 ovarian
COLO 205 colon = test system: COLO 205 colon
SF-268 CNS = test system: SF-268 CNS
DLD-1 colon = test system: DLD-1 colon
U251 CNS = test system: U251 CNS
MALME-3M melanoma = test system: MALME-3M melanoma
SNB-78 CNS = test system: SNB-78 CNS
NCI-H460 lung = test system: NCI-H460 lung
OVCAR-8 ovarian = test system: OVCAR-8 ovarian
SNB-75 CNS = test system: SNB-75 CNS
EKVX NSCLC = test system: EKVX NSCLC
UACC-62 melanoma = test system: UACC-62 melanoma
P388 leukemia = test system: P388 leukemia
OVCAR-4 ovarian = test system: OVCAR-4 ovarian
HOP-62 NSCLC = test system: HOP-62 NSCLC
HL-60(TB) leukemia = test system: HL-60(TB) leukemia
RPMI-8226 leukemia = test system: RPMI-8226 leukemia
MOLT-4 leukemia = test system: MOLT-4 leukemia
NCI-H522 lung = test system: NCI-H522 lung
DMS 273 small cell lung = test system: DMS 273 small cell lung
SF-539 CNS = test system: SF-539 CNS
SK-MEL-28 melanoma = test system: SK-MEL-28 melanoma
P388/ADR leukemia = test system: P388/ADR leukemia
HOP-92 NSCLC = test system: HOP-92 NSCLC
KM12 colon = test system: KM12 colon
HCT-15 colon = test system: HCT-15 colon
CCRF-CEM leukemia = test system: CCRF-CEM leukemia
IGROV1 ovarian = test system: IGROV1 ovarian
NCI-H322M lung = test system: NCI-H322M lung
KM20L2 colon = test system: KM20L2 colon
CAKI-1 renal = test system: CAKI-1 renal
SK-MEL-2 melanoma = test system: SK-MEL-2 melanoma
MCF7 breast = test system: MCF7 breast
RXF 393 renal = test system: RXF 393 renal
A549 NSCLC = test system: A549 NSCLC
SN12C renal = test system: SN12C renal
NCI-H23 lung = test system: NCI-H23 lung
SK-OV-3 ovarian = test system: SK-OV-3 ovarian
K-562 leukemia = test system: K-562 leukemia
HOP-18 NSCLC = test system: HOP-18 NSCLC
NCI/ADR-RES ovarian = test system: NCI/ADR-RES ovarian
HCC-2998 colon = test system: HCC-2998 colon
UO-31 renal = test system: UO-31 renal
SNB-19 CNS = test system: SNB-19 CNS
A498 renal = test system: A498 renal
LOX IMVI melanoma = test system: LOX IMVI melanoma
SK-MEL-5 melanoma = test system: SK-MEL-5 melanoma
SF-295 CNS = test system: SF-295 CNS
SN12K1 renal = test system: SN12K1 renal
M19-MEL melanoma = test system: M19-MEL melanoma
NCI-H226 lung = test system: NCI-H226 lung
HCT-116 colon = test system: HCT-116 colon
UACC-257 melanoma = test system: UACC-257 melanoma
DMS 114 small cell lung = test system: DMS 114 small cell lung
HT29 colon = test system: HT29 colon
OVCAR-5 ovarian = test system: OVCAR-5 ovarian
SW-620 colon = test system: SW-620 colon

With `N#CC1=C(C#N)NP(=O)(N(CCCl)CCCl)N1` the GI50 (OVCAR-3 ovarian) was > 100 µM, the TGI (OVCAR-3 ovarian) was > 100 µM and the GI50 (COLO 205 colon) was > 100 µM. For the same molecule, the TGI (COLO 205 colon) was > 100 µM, the GI50 (SF-268 CNS) was > 100 µM and the TGI (SF-268 CNS) was > 100 µM. For the same molecule, the GI50 (DLD-1 colon) was > 100 µM, the TGI (DLD-1 colon) was > 100 µM and the GI50 (U251 CNS) was > 100 µM. For the same molecule, the TGI (U251 CNS) was > 100 µM, the GI50 (MALME-3M melanoma) was > 100 µM and the TGI (MALME-3M melanoma) was > 100 µM. For the same molecule, the GI50 (SNB-78 CNS) was > 100 µM, the TGI (SNB-78 CNS) was > 100 µM and the GI50 (NCI-H460 lung) was 88.5 µM. The TGI (NCI-H460 lung) was > 100 µM, the GI50 (OVCAR-8 ovarian) was > 100 µM and the TGI (OVCAR-8 ovarian) was > 100 µM. The GI50 (SNB-75 CNS) was > 100 µM, the TGI (SNB-75 CNS) was > 100 µM and the GI50 (EKVX NSCLC) was > 100 µM. The TGI (EKVX NSCLC) was > 100 µM, the GI50 (UACC-62 melanoma) was > 100 µM and the TGI (UACC-62 melanoma) was > 100 µM. For the same molecule, the GI50 (P388 leukemia) was > 100 µM, the TGI (P388 leukemia) was > 100 µM and the GI50 (OVCAR-4 ovarian) was > 100 µM. For the same molecule, the TGI (OVCAR-4 ovarian) was > 100 µM, the GI50 (HOP-62 NSCLC) was > 100 µM and the TGI (HOP-62 NSCLC) was > 100 µM. For the same molecule, the GI50 (HL-60(TB) leukemia) was 31.6 µM, the TGI (HL-60(TB) leukemia) was 31.6 µM and the GI50 (RPMI-8226 leukemia) was > 100 µM. The TGI (RPMI-8226 leukemia) was > 100 µM, the GI50 (MOLT-4 leukemia) was 38.1 µM and the TGI (MOLT-4 leukemia) was > 100 µM. For the same molecule, the GI50 (NCI-H522 lung) was > 100 µM, the TGI (NCI-H522 lung) was > 100 µM and the GI50 (DMS 273 small cell lung) was > 100 µM. The TGI (DMS 273 small cell lung) was > 100 µM, the GI50 (SF-539 CNS) was > 100 µM and the TGI (SF-539 CNS) was > 100 µM. The GI50 (SK-MEL-28 melanoma) was > 100 µM, the TGI (SK-MEL-28 melanoma) was > 100 µM and the GI50 (P388/ADR leukemia) was > 100 µM. The TGI (P388/ADR leukemia) was > 100 µM, the GI50 (HOP-92 NSCLC) was > 100 µM and the TGI (HOP-92 NSCLC) was > 100 µM. The GI50 (KM12 colon) was > 100 µM, the TGI (KM12 colon) was > 100 µM and the GI50 (HCT-15 colon) was > 100 µM. The TGI (HCT-15 colon) was > 100 µM, the GI50 (CCRF-CEM leukemia) was > 100 µM and the TGI (CCRF-CEM leukemia) was > 100 µM. For the same molecule, the GI50 (IGROV1 ovarian) was > 100 µM, the TGI (IGROV1 ovarian) was > 100 µM and the GI50 (NCI-H322M lung) was > 100 µM. The TGI (NCI-H322M lung) was > 100 µM, the GI50 (KM20L2 colon) was > 100 µM and the TGI (KM20L2 colon) was > 100 µM. The GI50 (CAKI-1 renal) was > 100 µM, the TGI (CAKI-1 renal) was > 100 µM and the GI50 (SK-MEL-2 melanoma) was > 100 µM. For the same molecule, the TGI (SK-MEL-2 melanoma) was > 100 µM, the GI50 (MCF7 breast) was > 100 µM and the TGI (MCF7 breast) was > 100 µM. The GI50 (RXF 393 renal) was > 100 µM, the TGI (RXF 393 renal) was > 100 µM and the GI50 (A549 NSCLC) was > 100 µM. For the same molecule, the TGI (A549 NSCLC) was > 100 µM, the GI50 (SN12C renal) was > 100 µM and the TGI (SN12C renal) was > 100 µM. For the same molecule, the GI50 (NCI-H23 lung) was > 100 µM, the TGI (NCI-H23 lung) was > 100 µM and the GI50 (SK-OV-3 ovarian) was > 100 µM. For the same molecule, the TGI (SK-OV-3 ovarian) was > 100 µM, the GI50 (K-562 leukemia) was > 100 µM and the TGI (K-562 leukemia) was > 100 µM. For the same molecule, the GI50 (HOP-18 NSCLC) was > 100 µM, the TGI (HOP-18 NSCLC) was > 100 µM and the GI50 (NCI/ADR-RES ovarian) was > 100 µM. For the same molecule, the TGI (NCI/ADR-RES ovarian) was > 100 µM, the GI50 (HCC-2998 colon) was > 100 µM and the TGI (HCC-2998 colon) was > 100 µM. For the same molecule, the GI50 (UO-31 renal) was > 100 µM, the TGI (UO-31 renal) was > 100 µM and the GI50 (SNB-19 CNS) was > 100 µM. The TGI (SNB-19 CNS) was > 100 µM, the GI50 (A498 renal) was > 100 µM and the TGI (A498 renal) was > 100 µM. For the same molecule, the GI50 (LOX IMVI melanoma) was > 100 µM, the TGI (LOX IMVI melanoma) was > 100 µM and the GI50 (SK-MEL-5 melanoma) was > 100 µM. For the same molecule, the TGI (SK-MEL-5 melanoma) was > 100 µM, the GI50 (SF-295 CNS) was > 100 µM and the TGI (SF-295 CNS) was > 100 µM. For the same molecule, the GI50 (SN12K1 renal) was > 100 µM, the TGI (SN12K1 renal) was > 100 µM and the GI50 (M19-MEL melanoma) was > 100 µM. The TGI (M19-MEL melanoma) was > 100 µM, the GI50 (NCI-H226 lung) was > 100 µM and the TGI (NCI-H226 lung) was > 100 µM. For the same molecule, the GI50 (HCT-116 colon) was > 100 µM, the TGI (HCT-116 colon) was > 100 µM and the GI50 (UACC-257 melanoma) was > 100 µM. The TGI (UACC-257 melanoma) was > 100 µM, the GI50 (DMS 114 small cell lung) was > 100 µM and the TGI (DMS 114 small cell lung) was > 100 µM. The GI50 (HT29 colon) was > 100 µM, the TGI (HT29 colon) was > 100 µM and the GI50 (OVCAR-5 ovarian) was > 100 µM. For the same molecule, the TGI (OVCAR-5 ovarian) was > 100 µM, the GI50 (SW-620 colon) was > 100 µM and the TGI (SW-620 colon) was > 100 µM.
